{"source": "patent US8293724B2", "about": "“Therapeutic applications of fatty acid amide hydrolase inhibitors” (The United States of America, as represented by the …, priority 2007, dated 2012)", "target": "T1, FAAH (Mus musculus, UniProt O08914)", "T1 construct": "the brain and liver removed, and tissue homogenates prepared as described above; from tissue; host or cells: mouse brain and liver homogenates after in vivo dosing", "test": "FAAH activity in brain and liver homogenates following in vivo administration", "set-up": "species or system mice", "conditions": "read-out: inhibition of FAAH in the liver", "protocol": "For the experiments illustrated in FIG. 3, FAAH activity was assessed through a different method not requiring TLC separation, as described by Jonsson et al: Br. J. Pharmacol. 133:1263-1275, 1997. […] The mice were sacrificed one hour later, the brain and liver removed, and tissue homogenates prepared as described above. [^3H]Anandamide labeled on the ethanolamide moiety was added to the homogenate and incubated at 37° C. for 10 min. The homogenate was then extracted twice with chloroform:methanol 1:1 and the radioactivity in the aqueous phase (containing the released ethanolamide) was counted.", "data": [{"compound": "O=S(=O)(F)CCCCCc1ccc(O)cc1", "note": "[AM3506]", "values": [{"measurement": "inhibition at 0.3 mg/kg", "result": 0, "unit": "%"}]}]}
